# Measured affinities in a library of Ab-14 heavy chain variants

The target is the same throughout: PDVDLGDISGINAS, from the HR2 region of SARS-CoV-2 spike.

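Variants in AAYL49 differ from the parent at up to three CDR positions; double and triple changes were sampled at random. AlphaSeq pools MATa yeast showing the antibodies with MATalpha yeast showing the peptide. Binding brings cells together so that they mate, and sequencing counts the barcode pairs among the diploids. Scores were corrected for input abundance and mapped to Kd with protein pairs of known affinity run in the same pool. Mating was done three times.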

The variants keep the light chain, the linker and the frameworks of Ab-14 (scFv order VH, a (GGGGS)3 linker, VL).
VH: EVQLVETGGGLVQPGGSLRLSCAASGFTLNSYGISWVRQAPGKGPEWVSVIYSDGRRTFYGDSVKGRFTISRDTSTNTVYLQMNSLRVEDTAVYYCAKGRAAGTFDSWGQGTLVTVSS
VL: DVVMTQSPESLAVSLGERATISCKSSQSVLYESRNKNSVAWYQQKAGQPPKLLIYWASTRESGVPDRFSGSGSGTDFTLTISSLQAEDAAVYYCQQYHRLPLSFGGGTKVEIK

Positions count from residue 1 of the parent VH; T28A puts A in place of T.
Numbers give log10(Kd / nM), so 0 is 1 nM and 3 is 1 µM. Smaller is tighter.
The mean shown is taken over the replicates in which the pair was detected.
A pair that was not seen in that replicate is written "n.d."; this usually means weak binding, but a binder can also be missed.
Parent in this assay: reference entry 0.65, copy in this library 4.11 (one replicate of three).

changes,log10 Kd (nM) by replicate,mean log10 Kd (nM),control signals
T28A V64H T104S,n.d. n.d. n.d.,n.d.,1 of 9 (3.94)
Y52P F59Q A102P,n.d. n.d. 3.37,3.37,2 of 9 (3.24)
S31W V64K G103R,4.48 n.d. n.d.,4.48,2 of 9 (5.25)
F27I V64D F105N,n.d. 4.82 n.d.,4.82,0 of 9
I51T R57L Y60R,3.65 n.d. n.d.,3.65,1 of 9 (3.80)
G55H R57P A102L,4.47 n.d. n.d.,4.47,1 of 9 (3.78)
F27L,4.12 3.57 3.08,3.59,6 of 9 (4.61)
S31L R57D D62M,4.91 n.d. n.d.,4.91,3 of 9 (4.71)
I34K R56C A102K,4.73 3.18 5.42,4.44,2 of 9 (3.01)
F27A T58I T104E,3.19 3.87 3.66,3.57,0 of 9
G33Y F105P D106I,n.d. 4.28 5.67,4.98,8 of 9 (4.61)
G55V R56P G61P,n.d. 3.18 n.d.,3.18,0 of 9
Y60G S63E A102S,n.d. 3.11 n.d.,3.11,2 of 9 (2.73)
D62K T104R D106T,2.02 3.11 2.56,2.56,0 of 9
I51K G99R S107H,n.d. 3.56 5.52,4.54,4 of 9 (3.66)
S31C G33Y D62A,n.d. 3.99 n.d.,3.99,1 of 9 (4.30)
N30Q I34F Y60E,n.d. 5.02 n.d.,5.02,1 of 9 (3.50)
G26F D106W,2.95 2.77 2.74,2.82,3 of 9 (3.50)
K65L R100F D106S,n.d. n.d. 4.70,4.70,1 of 9 (3.76)
G55M R57Y T58D,n.d. n.d. n.d.,n.d.,0 of 9
G26C F59I Y60T,n.d. n.d. n.d.,n.d.,0 of 9
Y60C D62W G103D,n.d. 2.59 n.d.,2.59,1 of 9 (3.29)
F27Q R57E A102P,n.d. n.d. 4.84,4.84,2 of 9 (4.34)
F27V T58Q S63W,n.d. n.d. n.d.,n.d.,0 of 9
I34F G103M S107N,n.d. n.d. n.d.,n.d.,0 of 9
N30S S35F Y52D,n.d. n.d. n.d.,n.d.,0 of 9
Y52T S53K K65E,3.88 n.d. n.d.,3.88,3 of 9 (3.13)
S31Q S35M D54F,5.11 n.d. n.d.,5.11,1 of 9 (3.71)
Y60A S63L G103N,5.34 4.36 4.15,4.62,4 of 9 (4.66)
I34E Y52Q S63M,n.d. n.d. n.d.,n.d.,0 of 9
Y32T D106Y,2.90 n.d. n.d.,2.90,1 of 9 (3.40)
G26E F27Y Y32G,n.d. n.d. n.d.,n.d.,0 of 9
I34P R100S S107C,n.d. n.d. 5.06,5.06,0 of 9
G26M S31E F59G,2.41 2.12 2.18,2.24,1 of 9 (3.34)
L29H I34S A101F,n.d. n.d. n.d.,n.d.,1 of 9 (4.03)
N30Y G103A,n.d. n.d. 3.43,3.43,2 of 9 (4.51)
Y32D R57M S63M,3.36 n.d. n.d.,3.36,2 of 9 (4.25)
V64K F105L D106F,n.d. 3.58 n.d.,3.58,2 of 9 (3.99)
R56I D62W,n.d. n.d. n.d.,n.d.,1 of 9 (5.33)
F27Q G33F T104K,n.d. n.d. n.d.,n.d.,1 of 9 (1.92)
L29W D54C T58I,3.15 n.d. n.d.,3.15,0 of 9
T28H R57A G61A,2.93 2.57 3.09,2.86,2 of 9 (3.77)

Picked from the list: the 3 lowest averages where every replicate gave a value.

{"changes": "G26M S31E F59G", "log10 Kd (nM) by replicate": "2.41 2.12 2.18", "mean log10 Kd (nM)": "2.24", "control signals": "1 of 9 (3.34)"}
{"changes": "D62K T104R D106T", "log10 Kd (nM) by replicate": "2.02 3.11 2.56", "mean log10 Kd (nM)": "2.56", "control signals": "0 of 9"}
{"changes": "G26F D106W", "log10 Kd (nM) by replicate": "2.95 2.77 2.74", "mean log10 Kd (nM)": "2.82", "control signals": "3 of 9 (3.50)"}

Three control strains display no target. For library AAYL49, 15% of the pairings with them gave a signal, with a median of 4.06 and one signal in twenty below 2.83, so weak values seen in few replicates may be background. Also given: how often the same scFv was detected with the empty control strains, with their mean in brackets.

Values reported by Engelhart et al. 2022, doi:10.1038/s41597-022-01779-4 (FLAb copy).